# Measured values reported in patent US5578725A, “Delta opioid receptor antagonists” (priority 1995, dated 1996).
# The chains behind the UniProt entries cited, without tags or fusion partners.
# UniProt P42866, whole entry: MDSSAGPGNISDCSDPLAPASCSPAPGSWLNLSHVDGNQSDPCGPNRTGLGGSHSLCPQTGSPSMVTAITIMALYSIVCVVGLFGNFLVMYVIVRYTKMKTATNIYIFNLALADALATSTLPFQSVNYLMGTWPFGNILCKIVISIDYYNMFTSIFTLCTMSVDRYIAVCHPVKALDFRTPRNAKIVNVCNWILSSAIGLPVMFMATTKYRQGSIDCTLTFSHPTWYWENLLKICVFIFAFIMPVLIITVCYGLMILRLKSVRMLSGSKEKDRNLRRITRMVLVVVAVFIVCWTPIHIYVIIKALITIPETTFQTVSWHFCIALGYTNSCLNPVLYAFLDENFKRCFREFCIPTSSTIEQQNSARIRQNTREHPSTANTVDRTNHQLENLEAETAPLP
# Target: T1, μ (Mus musculus, UniProt P42866)
# T1 construct: male Swiss-Webster mice; from tissue; host or cells: living mouse (male Swiss-Webster)
# Experiment: Tail-flick assay, antagonism of morphine (μ) antinociception
# Type: in vivo, male Swiss-Webster mice
# Conditions: mice
compound,measurement,setting,value
"CN1CC[C@]23c4c5ccc(O)c4O[C@H]2[C@@H](O)C=C[C@H]3[C@H]1C5 [Morphine, morphine, reference compound]",Peak antinociceptive activity time,agonist,30 min
same,Control ED50 (95% C.L.),"morphine s.c., no antagonist, 30 min",9.7 (8.6-10.9) μmol/kg
